From PubChem BioAssay AID1645883 (National Center for Advancing Translational Sciences (NCATS), 2021)
Values joined by “and” are separate entries in the source; they are usually repeats but may differ in a detail not shown here. Identical values can stand only once. This is a selection; strong and weak results do not stand in their true shares. Records with an inconclusive call do not appear. Active and inactive are the calls of the source. Calls come from the whole dose curve; as a rule, active = well fitted activation curve with a large enough effect; inconclusive = small, poorly fitted or top-dose-only effect; inactive = no such curve, though single readings can be large or run the other way.

By UniProt entry, the sequences of proteins in these tests, tags left out. Where a name states a change or a piece, a line headed by the entry shows the natural chain unless it says otherwise.
UniProt O95398: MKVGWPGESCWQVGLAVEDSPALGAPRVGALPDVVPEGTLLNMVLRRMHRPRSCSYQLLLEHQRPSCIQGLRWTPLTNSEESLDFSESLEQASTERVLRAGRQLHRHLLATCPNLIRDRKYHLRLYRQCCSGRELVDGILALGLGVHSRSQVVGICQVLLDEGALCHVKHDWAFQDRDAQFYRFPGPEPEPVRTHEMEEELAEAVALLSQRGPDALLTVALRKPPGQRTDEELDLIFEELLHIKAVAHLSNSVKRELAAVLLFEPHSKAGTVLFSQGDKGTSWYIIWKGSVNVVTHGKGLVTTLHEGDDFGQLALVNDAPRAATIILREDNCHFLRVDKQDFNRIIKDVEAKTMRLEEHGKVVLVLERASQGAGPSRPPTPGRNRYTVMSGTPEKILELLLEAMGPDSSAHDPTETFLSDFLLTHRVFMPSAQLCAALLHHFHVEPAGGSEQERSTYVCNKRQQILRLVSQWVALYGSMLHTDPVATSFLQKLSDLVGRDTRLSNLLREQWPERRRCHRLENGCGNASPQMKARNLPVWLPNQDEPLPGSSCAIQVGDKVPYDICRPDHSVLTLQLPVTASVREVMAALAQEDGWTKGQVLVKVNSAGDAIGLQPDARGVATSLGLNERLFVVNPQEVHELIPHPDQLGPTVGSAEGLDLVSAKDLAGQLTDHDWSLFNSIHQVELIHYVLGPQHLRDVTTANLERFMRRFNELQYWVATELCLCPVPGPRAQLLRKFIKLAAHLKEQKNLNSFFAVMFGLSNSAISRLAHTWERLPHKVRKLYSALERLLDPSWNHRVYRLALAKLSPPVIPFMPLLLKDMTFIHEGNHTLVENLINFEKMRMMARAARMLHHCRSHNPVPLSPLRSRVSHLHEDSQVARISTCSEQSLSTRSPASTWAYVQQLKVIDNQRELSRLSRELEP

These compounds were tested against Rap guanine nucleotide exchange factor 3 (Homo sapiens) (UniProt O95398) (assay: Validation qHTS for agonist of cAMP-regulated guanine nucleotide exchange factor 3 (EPAC1)). Settings: EPAC1 Rap1b BODIPY-GDP exchange, fluorescence; active compounds read high; percent of cAMP control response.
Source text: Assay Provider (PI): Xiaodong Cheng Ph.D.
The University of Texas Medical Branch, […], TX
In multi-cellular eukaryotic organisms, the effects of cAMP are transduced by two ubiquitously-expressed intracellular cAMP receptors, the classic protein kinase A/cAMP-dependent protein kinase (PKA/cAPK) and the more recently discovered exchange protein directly activated by cAMP/cAMP-regulated guanine nucleotide exchange factor (EPAC/cAMP-GEF). Both PKA and EPAC are ubiquitously expressed in all tissues, and an increase in intracellular cAMP levels will lead to the activation of both PKA and EPAC. Therefore, careful dissections of the individual role and relative contribution of EPAC and PKA within the overall cAMP signaling in various model systems are critical for further elucidating the mechanism of cAMP signaling. To date no EPAC-specific antagonists and agonist, as well as isoform-specific agonists have been reported, and developing EPAC-specific pharmacological probes to determine the physiological functions that EPAC play in the overall cAMP-mediated signaling remains a major challenge within the research field. Furthermore, identified regulators of EPAC may lead to new mechanism-based therapeutic strategies specifically targeting the EPAC / cAMP-signaling components as EPAC has been implicated to play important roles in major human pathological conditions such as diabetes, heart disease, and cancer.
This qHTS will be used to screen the Molecular Libraries Small Molecule Repository (MLSMR) as a concentration-titration series using the NCGC unique quantitative screening (qHTS) platform to find activators for EPAC1. In addition, this assay will also be used as a counterscreen for the EPAC2 qHTS. This fluorescent based assay is developed and validated for EPAC1 that measures exchange using EPAC effector Rap1 complex with BODIPY-GDP, a GDP analog with a tethered fluorophores. Activators are identified by monitoring the change in fluorescence signal as the exchanged free BODIPY-GDP has a reduced fluorescence compared to Rap1-bound BODIPY-GDP. Increase in signal (activation) is the desired outcome for the EPAC1 agonist while no activity in this assay is desired for the EPAC2 agonist counterscreen.
[1] de Rooij, J., Zwartkruis, F. J., Verheijen, M. H., Cool, R. H., Nijman, S. M., Wittinghofer, A., and Bos, J.L. (1998) Nature 396, 474-477.
Briefly, three uL of reagents (100 nM EPAC1, 250 nM RAP1B-BODIPY-GDP, 50 uM GDP) were dispensed into a 1536-well Greiner black solid-bottom medium binding assay plate. Controls and test compounds (23 nL) were transferred to the plate via a Kalypsys pin tool equipped with a 1536-pin array. The plates were centrifuged at 1,000 rpm for 15 seconds followed by 5 minute incubation at room temperature. The assay plates were read at 5 minute intervals for 30 minutes in the ViewLux plate reader using 480nm excitation and 540nm emission filters. The results were normalized to the agonist positive control of 6.5 mM cAMP.
% is set by controls: 0 for no effect and ±100 for the full control effect.
Note: nearly all actives have a fitted effect of over 70% in size.

Compound | max response
COc1cc([N+](=O)[O-])c([N+](=O)[O-])cc1OC | inactive: -13%
CC(=O)C1=CCCC2CCC1N2 (configuration not stated) | inactive: -12%
Cc1cc(C=O)ccc1N(CCCl)CCCl | inactive: -7.35%
Nc1c(O)cc([N+](=O)[O-])cc1[N+](=O)[O-] | inactive: 13.3%
CN(C(=O)Cc1ccc(Cl)c(Cl)c1)[C@H]1CCCC[C@@H]1N1CCCC1 | inactive: 1.12% [middle of 8 runs]
CCNC(C)Cc1ccc2c(c1)OCO2 (configuration not stated) | inactive: -0.295%
O=C(OC1CN2CCC1CC2)c1ccccc1 (configuration not stated) | inactive: -4.03%
CN(C(=O)Cc1ccc(Cl)c(Cl)c1)[C@@H]1CCCC[C@@H]1N1CCCC1 | inactive: -8.3%
O=[N+]([O-])c1cc([N+](=O)[O-])c2nc[nH]c2c1 | inactive: 21.3%
CN(C(=O)Cc1ccccc1)[C@H]1CC[C@@]2(CCCO2)C[C@@H]1N1CCCC1 | inactive: 3.76%
Cc1cc([N+](=O)[O-])cc([N+](=O)[O-])c1O | inactive: 9.54%
CN(C(=O)Cc1ccc(Cl)c(Cl)c1)[C@@H]1CCCC[C@H]1N1CCCC1 | inactive: -13.9%
CN(CCCl)Cc1cc(Cl)c(NC2=NCCN2)c(Cl)c1 | inactive: -8.15% and inactive: -6.95%
NC(=O)Nc1ccc([As](=O)(O)O)cc1 | inactive: -35.2%
CN(C(=O)Cc1ccc(Cl)c(Cl)c1)[C@H]1CC[C@@]2(CCCO2)C[C@@H]1N1CCCC1 | inactive: -8.32%
CN(C(=O)Cc1ccccc1)[C@@H]1CC[C@]2(CCCO2)C[C@H]1N1CCCC1 | inactive: 4.11%
CN(C(=O)Cc1ccc(Cl)c(Cl)c1)[C@@H]1CC[C@]2(CCCO2)C[C@H]1N1CCCC1 | inactive: -2.19%
